Data reported in ChEMBL document CHEMBL1129524, “Potent inhibitors of acyl-CoA:cholesterol acyltransferase. 2. Structure-activity relationships of novel N-(2,2-dimethyl-2,3-dihydrobenzofuran-7-yl)amides” (J Med Chem, 1996).

Sequences of proteins named here, by UniProt entry; tags and fusion partners are left off. Residues count along the entry.
UniProt G1SFD9, 1-524: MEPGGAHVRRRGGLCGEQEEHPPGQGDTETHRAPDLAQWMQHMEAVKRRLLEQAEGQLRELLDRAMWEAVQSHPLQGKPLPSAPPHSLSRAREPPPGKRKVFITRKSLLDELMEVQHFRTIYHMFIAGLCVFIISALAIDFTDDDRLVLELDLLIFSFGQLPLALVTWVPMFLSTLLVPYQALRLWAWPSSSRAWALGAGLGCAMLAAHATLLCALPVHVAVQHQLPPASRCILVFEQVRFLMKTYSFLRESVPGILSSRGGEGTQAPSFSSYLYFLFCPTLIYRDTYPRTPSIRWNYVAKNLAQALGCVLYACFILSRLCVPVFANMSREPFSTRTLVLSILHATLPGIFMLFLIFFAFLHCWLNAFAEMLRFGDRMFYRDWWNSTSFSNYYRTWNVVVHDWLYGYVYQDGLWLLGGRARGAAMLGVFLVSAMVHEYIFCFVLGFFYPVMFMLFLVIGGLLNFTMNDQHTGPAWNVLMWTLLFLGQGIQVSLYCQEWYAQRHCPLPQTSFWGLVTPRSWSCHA

These compounds were tested against O-acyltransferase (Oryctolagus cuniculus, UniProt G1SFD9) (assay: Inhibitory activity against Acyl coenzyme A:cholesterol acyltransferase 1 obtained from rabbit intestine microsomes).
How it was run: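 Enzyme source was small-intestinal mucosa microsomes from cholesterol-fed rabbits. The substrate was [1-¹⁴C]oleoyl-CoA.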
`Cc1cc(C)c(NC(=O)C(C)(C)CCCCOCc2ccccc2)c2c1CC(C)(C)O2` was tested, and the IC50 was 400 nM. `Cc1cc(C)c(NC(=O)C(C)(C)CCCCCCOCC(C)C)c2c1CC(C)(C)O2` was tested, and the IC50 was 59 nM. Compound `CCCCCCCCCCCCCCCC(=O)Nc1c(C)ccc2c1OC(C)(C)C2` has an IC50 of 24 nM. With `CCCCCCCCCCC(C)(C)C(=O)Nc1c(C)cc(C)c2c1OC(C)(C)C2` the IC50 was 42 nM. Compound `CCCCCCCCCCC1(C(=O)Nc2c(C)c(Cl)c(C)c3c2OC(C)(C)C3)CCCC1` has an IC50 of 290 nM.
